Measured values published in US11083754B2, “Methods for generation of podocytes from pluripotent stem cells and cells produced by the same” (PRESIDENT AND FELLOWS OF HARVARD COLLEGE, priority 2014, dated 2021).

Test system: in vitro glomerular capillary wall (hiPS-derived podocytes / human glomerular endothelial cells)
Test: Glomerular filtration of albumin and inulin in organ-on-a-chip lined by hiPS-derived podocytes and glomerular endothelial cells
Assay type: in vitro ADME
Excerpt: FIGS. 10A-10G show use of an organ-on-chip microphysiological device to perform the differentiation of human iPS-derived podocytes and to model the structure and function of human glomerular capillary wall. (FIG. 10A) Schematic representation of glomerular capillary wall showing podocytes and endothelial cells separated by glomerular basement membrane (GBM). Exemplary directional flow of molecules from capillary lumen to urinary space is shown by arrowed line. (FIG. 10B) Photograph (left) and schematic (right) of an exemplary microfluidic organ-on-chip device with compartments simulating the function of the urinary and capillary components of the glomerulus. The glomerular basement membrane is modeled by a porous PDMS membrane that is amenable to functionalization with ECM protein(s). (FIG. 10C) Fluorescent images of human iPS-derived podocytes differentiated in organs-on-chips microfluidic devices. Cells were differentiated in static (left), fluid flow (middle), or fluid flow and mechanical strain (right) conditions. Fluid was flowed at a rate of about 60 μL/hr in both the urinary and capillary compartments of the device. […] (FIG. 10G) Quantification of glomerular filtration of albumin and inulin continuously infused into the capillary channel of organs-on-chips lined by human iPS-derived podocytes and glomerular endothelial cells. […]

albumin
glomerular filtration on chip (capillary to urinary channel): selective retention
